From ChEMBL document CHEMBL3879899, “Gastrin releasing peptide compounds” (2011)

The chains behind the UniProt entries cited, without tags or fusion partners. Where a name states a change or a piece, a line headed by the entry shows the natural chain unless it says otherwise.
UniProt P30550: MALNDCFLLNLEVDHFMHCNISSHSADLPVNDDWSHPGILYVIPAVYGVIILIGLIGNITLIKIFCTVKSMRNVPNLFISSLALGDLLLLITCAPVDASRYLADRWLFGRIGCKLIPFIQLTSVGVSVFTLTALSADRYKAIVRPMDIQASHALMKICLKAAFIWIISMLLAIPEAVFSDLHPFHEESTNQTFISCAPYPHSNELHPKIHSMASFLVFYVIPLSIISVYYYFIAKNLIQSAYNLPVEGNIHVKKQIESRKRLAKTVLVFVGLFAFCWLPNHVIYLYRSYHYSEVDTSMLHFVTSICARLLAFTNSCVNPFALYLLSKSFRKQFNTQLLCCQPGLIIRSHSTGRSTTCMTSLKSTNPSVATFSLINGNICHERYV

Assays:
[1] = target: Gastrin-releasing peptide receptor (Homo sapiens, UniProt P30550); assay: Displacement of [125I]-BBN from GRPR in human PC3 cells after 1 hr by compuGamma counting or microplate scintillation counting method; assay type: cell-based, PC-3
Neuromedin-B receptor = target: T1, Neuromedin-B receptor (Rattus norvegicus, UniProt P24053); assay: Displacement of [125I]-NMB from NMB receptor in rat C6 cells; assay type: cell-based
T1 sequence (P24053 whole entry): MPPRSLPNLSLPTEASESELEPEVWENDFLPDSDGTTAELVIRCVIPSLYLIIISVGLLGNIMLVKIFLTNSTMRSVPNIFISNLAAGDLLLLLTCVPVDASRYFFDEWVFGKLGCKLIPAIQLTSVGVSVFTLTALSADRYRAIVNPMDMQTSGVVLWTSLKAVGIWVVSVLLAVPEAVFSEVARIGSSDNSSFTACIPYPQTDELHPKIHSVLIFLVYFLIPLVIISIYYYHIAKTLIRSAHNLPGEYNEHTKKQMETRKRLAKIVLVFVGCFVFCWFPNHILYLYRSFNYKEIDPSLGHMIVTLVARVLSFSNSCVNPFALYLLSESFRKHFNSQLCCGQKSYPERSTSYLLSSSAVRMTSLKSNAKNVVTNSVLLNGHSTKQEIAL

| SMILES | IC50 [1] [µM] | IC50 (Neuromedin-B receptor) [µM] |
| --- | --- | --- |
| CSCC[C@H](NC(=O)[C@H](CC(C)C)NC(=O)[C@H](Cc1cnc[nH]1)NC(=O)CNC(=O)[C@@H](NC(=O)[C@H](C)NC(=O)[C@H](Cc1c[nH]c2ccccc12)NC(=O)[C@H](CCC(N)=O)NC(CN)C(=O)NC(=O)CN1CCN(C(=O)CNC(=O)[C@H](CSCNC(C)=O)NC(=O)[C@H](CO)NC(=O)CN(C)C)CC1)C(C)C)C(N)=O (some centres not stated) | 0.023 | – |
| CSCC[C@H](NC(=O)[C@H](CC(C)C)NC(=O)[C@H](Cc1cnc[nH]1)NC(=O)CNC(=O)[C@@H](NC(=O)[C@H](C)NC(=O)[C@H](Cc1c[nH]c2ccccc12)NC(=O)[C@H](CCC(N)=O)NC(=O)[C@H](CCCCN)NC(=O)[C@H](CO)NC(=O)CNC(=O)[C@H](CSCNC(C)=O)NC(=O)[C@H](CO)NC(=O)CN(C)C)C(C)C)C(N)=O | – | 0.0022 |
| CSCC[C@H](NC(=O)[C@H](CC(C)C)NC(=O)[C@H](Cc1cnc[nH]1)NC(=O)CNC(=O)[C@@H](NC(=O)[C@H](C)NC(=O)[C@H](Cc1c[nH]c2ccccc12)NC(=O)[C@H](CCC(N)=O)N[C@@H](CCCNC(=N)N)C(=O)NC(=O)CN1CCN(C(=O)CNC(=O)[C@H](CSCNC(C)=O)NC(=O)[C@H](CO)NC(=O)CN(C)C)CC1)C(C)C)C(N)=O | 0.026 | – |
| CSCC[C@H](NC(=O)[C@H](CC(C)C)NC(=O)[C@H](Cc1cnc[nH]1)NC(=O)CNC(=O)[C@@H](NC(=O)[C@H](C)NC(=O)[C@H](Cc1c[nH]c2ccccc12)NC(=O)[C@H](CCC(N)=O)NC(=O)[C@H](CC(N)=O)NC(=O)CNC(=O)[C@H](CC(C)C)NC(=O)[C@H](CCCCNC(=O)c1ccc(NC(=O)CNC(=O)CN2CCN(CC(=O)O)CCN(CC(=O)O)CCN(CC(=O)O)CC2)cc1)NC(=O)[C@H](CCC(N)=O)NC(=O)[C@@H]1CCCN1)C(C)C)C(N)=O | 0.053 | – |
| CSCC[C@H](NC(=O)[C@H](CC(C)C)NC(=O)[C@H](Cc1cnc[nH]1)NC(=O)CNC(=O)[C@@H](NC(=O)[C@H](C)NC(=O)[C@H](Cc1c[nH]c2ccccc12)NC(=O)[C@H](CCC(N)=O)NC(=O)[C@H](CCCCN)NC(=O)[C@H](CCCCN)NC(=O)CNC(=O)[C@H](CSCNC(C)=O)NC(=O)[C@H](CO)NC(=O)CN(C)C)C(C)C)C(N)=O | 0.013 | – |
| CSCC[C@H](NC(=O)[C@H](CC(C)C)NC(=O)[C@H](CO)NC(=O)CNC(=O)[C@@H](NC(=O)[C@H](C)NC(=O)[C@H](Cc1c[nH]c2ccccc12)NC(=O)[C@H](CC(C)C)NC(=O)c1ccc(NC(=O)CNC(=O)CN2CCN(CC(=O)O)CCN(CC(=O)O)CCN(CC(=O)O)CC2)cc1)C(C)C)C(N)=O | 0.24 | – |
| CSCC[C@H](NC(=O)[C@H](CC(C)C)NC(=O)[C@H](Cc1cnc[nH]1)NC(=O)CNC(=O)[C@@H](NC(=O)[C@H](C)NC(=O)[C@H](Cc1c[nH]c2ccccc12)NC(=O)[C@H](CCC(N)=O)NC(CN)C(=O)NC(=O)COCCOCCNC(=O)CNC(=O)[C@H](CSCNC(C)=O)NC(=O)[C@H](CO)NC(=O)CN(C)C)C(C)C)C(N)=O (some centres not stated) | 0.017 | – |
| CSCC[C@H](NC(=O)[C@H](Cc1ccccc1)NC(=O)[C@H](Cc1cnc[nH]1)NC(=O)CNC(=O)[C@@H](NC(=O)[C@H](C)NC(=O)[C@H](Cc1c[nH]c2ccccc12)NC(=O)[C@H](CC(C)C)NC(=O)[C@H](CC(N)=O)NC(=O)CNC(=O)[C@@H](N)Cc1ccc(O)cc1)[C@@H](C)O)C(N)=O | – | 0.00016 |
| CSCC[C@H](NC(=O)[C@H](CC(C)C)NC(=O)[C@H](Cc1cnc[nH]1)NC(=O)CNC(=O)[C@@H](NC(=O)[C@H](C)NC(=O)[C@H](Cc1c[nH]c2ccccc12)NC(=O)[C@H](CCC(N)=O)NC(=O)[C@H](CO)NC(=O)[C@H](CCCCN)NC(=O)CNC(=O)[C@H](CSCNC(C)=O)NC(=O)[C@H](CO)NC(=O)CN(C)C)C(C)C)C(N)=O | 0.0075 | – |
| CSCC[C@H](NC(=O)[C@H](CC(C)C)NC(=O)[C@H](Cc1cnc[nH]1)NC(=O)CNC(=O)[C@@H](NC(=O)[C@H](C)NC(=O)[C@H](Cc1c[nH]c2ccccc12)NC(=O)[C@H](CCC(N)=O)N[C@@H](CCCCN)C(=O)NC(=O)CN1CCN(CCNC(=O)CNC(=O)[C@H](CSCNC(C)=O)NC(=O)[C@H](CO)NC(=O)CN(C)C)CC1)C(C)C)C(N)=O | 0.034 | – |
| CSCC[C@H](NC(=O)[C@H](CC(C)C)NC(=O)[C@H](Cc1cnc[nH]1)NC(=O)CNC(=O)[C@@H](NC(=O)[C@H](C)NC(=O)[C@H](Cc1c[nH]c2ccccc12)NC(=O)[C@H](CCC(N)=O)N[C@@H](CO)C(=O)NC(=O)CN1CCN(C(=O)CNC(=O)[C@H](CSCNC(C)=O)NC(=O)[C@H](CO)NC(=O)CN(C)C)CC1)C(C)C)C(N)=O | 0.038 | – |
| CSCC[C@H](NC(=O)[C@H](CC(C)C)NC(=O)[C@H](Cc1cnc[nH]1)NC(=O)CNC(=O)[C@@H](NC(=O)[C@H](C)NC(=O)[C@H](Cc1c[nH]c2ccccc12)NC(=O)[C@H](CCC(N)=O)NC(=O)CNC(=O)CNC(=O)[C@H](CSCNC(C)=O)NC(=O)[C@H](CO)NC(=O)CN(C)C)C(C)C)C(N)=O | 0.025 | – |
